CycPeptMPDB entries from one study

Values of Townsend et al. 2020, doi:10.26434/chemrxiv.13335941.v1, as listed in CycPeptMPDB.

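Conditions beyond the assay type are not listed; see the original paper. The list need not hold all peptides of the study. Peptides that the database sets to -10, its floor, are left out.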

PAMPA is the parallel artificial membrane permeability assay, which has no cells and reads passive diffusion. Permeability is given as log10 of P in cm/s; higher (less negative) is more permeable.

PAMPA (log10 cm/s)	compound
-6.36	CCCN1CC(=O)N(C)[C@@H](CC(C)C)C(=O)N[C@H](CC(C)C)C(=O)N2CCC[C@H]2C(=O)N(Cc2ccccc2)CC(=O)N[C@@H](Cc2ccccc2)C(=O)N2CCC[C@@H]2C1=O
-4.90	CC(C)C[C@@H]1NC(=O)[C@@H](C)N(C)C(=O)[C@H](Cc2ccccc2)NC(=O)CN(Cc2ccccc2)C(=O)[C@H]2CCCN2C(=O)[C@H](CC(C)C)N(C)C1=O
-5.36	CC(C)C[C@@H]1NC(=O)[C@@H]2CCCN2C(=O)CN(Cc2ccccc2)C(=O)[C@H](CC(C)C)NC(=O)[C@H](C)N(C)C(=O)[C@H](Cc2ccccc2)NC1=O
-5.92	CC(C)C[C@@H]1C(=O)N[C@@H](Cc2ccccc2)CC(=O)N2CCC[C@H]2C(=O)N(C)[C@H](CC(C)C)C(=O)N[C@@H](Cc2ccccc2)C(=O)N2CCC[C@H]2C(=O)N(C)[C@H](C)C(=O)N1C
-5.33	CC(C)C[C@@H]1NC(=O)[C@H](C)N(C)C(=O)[C@@H]2CCCN2C(=O)[C@H](Cc2ccccc2)NC(=O)[C@H](CC(C)C)N(C)C(=O)[C@@H]2CCCN2C(=O)[C@@H](CC(C)C)NC1=O
-6.72	CC(C)C[C@@H]1NC(=O)[C@@H](C)NC(=O)[C@H]2CCCN2C(=O)[C@H](Cc2ccccc2)NC(=O)CN(Cc2ccccc2)C(=O)[C@H]2CCCN2C(=O)[C@@H](CC(C)C)NC1=O
-5.11	CC(C)C[C@@H]1NC(=O)[C@H](C)N(C)C(=O)[C@H]2CCCN2C(=O)[C@H](Cc2ccccc2)NC(=O)[C@@H](CC(C)C)N(C)C(=O)[C@@H]2CCCN2C(=O)[C@@H](CC(C)C)N(C)C1=O
-5.43	CC(C)C[C@@H]1C(=O)N(Cc2ccccc2)CC(=O)N2CCC[C@H]2C(=O)N(C)[C@@H](CC(C)C)C(=O)N[C@@H](Cc2ccccc2)C(=O)N[C@@H](Cc2ccccc2)CC(=O)N1C
-5.20	CCCN1CC(=O)N[C@H](CC(C)C)C(=O)N(C)[C@@H](CC(C)C)C(=O)N2CCC[C@H]2C(=O)N(C)[C@H](CC(C)C)C(=O)N[C@@H](Cc2ccccc2)C(=O)N2CCC[C@@H]2C1=O
-5.18	CC(C)C[C@@H]1C(=O)N2CCC[C@H]2C(=O)N(Cc2ccccc2)CC(=O)N[C@@H](Cc2ccccc2)C(=O)N2CCC[C@@H]2C(=O)N(C)[C@H](C)C(=O)N[C@H](CC(C)C)C(=O)N1C
-5.52	CC(C)C[C@@H]1C(=O)N(Cc2ccccc2)CC(=O)N2CCC[C@H]2C(=O)N[C@H](CC(C)C)C(=O)N[C@@H](Cc2ccccc2)C(=O)N2CCC[C@@H]2C(=O)N(C)[C@@H](C)C(=O)N1C
-5.39	CC(C)C[C@@H]1NC(=O)[C@@H]2CCCN2C(=O)[C@H](CC(C)C)N(C)C(=O)[C@@H](CC(C)C)N(C)C(=O)[C@H](C)N(C)C(=O)[C@H]2CCCN2C(=O)[C@H](Cc2ccccc2)NC1=O
-5.69	CC(C)C[C@@H]1C(=O)N[C@@H](Cc2ccccc2)C(=O)N[C@@H](C)C(=O)N[C@H](CC(C)C)C(=O)N(C)[C@@H](CC(C)C)C(=O)N2CCC[C@@H]2C(=O)N1C
-5.82	CC(C)C[C@H]1NC(=O)C[C@H](Cc2ccccc2)NC(=O)[C@H](Cc2ccccc2)NC(=O)CN(Cc2ccccc2)C(=O)[C@H]2CCCN2C(=O)[C@@H](CC(C)C)NC1=O
-5.88	CC(C)C[C@H]1NC(=O)[C@H](C)N(C)C(=O)[C@@H]2CCCN2C(=O)[C@H](Cc2ccccc2)NC(=O)CN(Cc2ccccc2)C(=O)[C@@H]2CCCN2C(=O)[C@H](CC(C)C)N(C)C1=O
-5.60	CC(C)C[C@@H]1NC(=O)[C@H]2CCCN2C(=O)[C@H](CC(C)C)NC(=O)[C@H](CC(C)C)N(C)C(=O)C[C@H](Cc2ccccc2)NC(=O)[C@H]2CCCN2C(=O)[C@H](Cc2ccccc2)NC1=O
-5.97	CC(C)C[C@@H]1NC(=O)[C@@H]2CCCN2C(=O)[C@H](CC(C)C)NC(=O)[C@H](CC(C)C)N(C)C(=O)[C@H](C)N(C)C(=O)[C@H](Cc2ccccc2)NC1=O
-6.45	CC(C)C[C@H]1NC(=O)[C@@H]2CCCN2C(=O)CN(Cc2ccccc2)C(=O)[C@@H](CC(C)C)NC(=O)[C@@H](C)NC(=O)[C@H](Cc2ccccc2)NC1=O
-5.48	CCCN1CC(=O)N[C@H](CC(C)C)C(=O)N[C@@H](Cc2ccccc2)CC(=O)N2CCC[C@@H]2C(=O)N(C)[C@H](CC(C)C)C(=O)N[C@@H](Cc2ccccc2)C(=O)N2CCC[C@@H]2C1=O
-5.61	CCCN1CC(=O)N(C)[C@H](CC(C)C)C(=O)N(Cc2ccccc2)CC(=O)N2CCC[C@H]2C(=O)N(C)[C@H](CC(C)C)C(=O)N[C@@H](Cc2ccccc2)C(=O)N2CCC[C@H]2C1=O
-6.02	CC(C)C[C@@H]1NC(=O)C[C@H](Cc2ccccc2)NC(=O)[C@H](Cc2ccccc2)NC(=O)[C@@H](CC(C)C)NC(=O)[C@H]2CCCN2C(=O)[C@@H](CC(C)C)NC1=O

The 3 highest values of PAMPA among the entries above:

{"smiles": "CC(C)C[C@@H]1NC(=O)[C@@H](C)N(C)C(=O)[C@H](Cc2ccccc2)NC(=O)CN(Cc2ccccc2)C(=O)[C@H]2CCCN2C(=O)[C@H](CC(C)C)N(C)C1=O", "PAMPA (log10 cm/s)": "-4.90"}
{"smiles": "CC(C)C[C@@H]1NC(=O)[C@H](C)N(C)C(=O)[C@H]2CCCN2C(=O)[C@H](Cc2ccccc2)NC(=O)[C@@H](CC(C)C)N(C)C(=O)[C@@H]2CCCN2C(=O)[C@@H](CC(C)C)N(C)C1=O", "PAMPA (log10 cm/s)": "-5.11"}
{"smiles": "CC(C)C[C@@H]1C(=O)N2CCC[C@H]2C(=O)N(Cc2ccccc2)CC(=O)N[C@@H](Cc2ccccc2)C(=O)N2CCC[C@@H]2C(=O)N(C)[C@H](C)C(=O)N[C@H](CC(C)C)C(=O)N1C", "PAMPA (log10 cm/s)": "-5.18"}